# Experimental data taken from ChEMBL document CHEMBL4765409, “Synthesis and biological evaluation of geniposide derivatives as potent and selective PTPlB inhibitors” (Eur J Med Chem, 2020).
# Key:
# [1] = species on record: Homo sapiens; test: Selectivity ratio of IC50 for recombinant SHP2 (unknown origin) to IC50 for inhibition of recombinant human PTP1B
# [2] = species on record: Homo sapiens; test: Selectivity ratio of IC50 for recombinant human TCPTP to IC50 for inhibition of recombinant human PTP1B
Ratio IC50 [1],Ratio IC50 [2],SMILES
4,4,CCOS(=O)(=O)/C=C/c1ccc(OCC2=CC[C@@H]3C(C(=O)Nc4ccc(Oc5ccc(Br)cc5Cl)cc4)=CO[C@@H](OCc4ccccc4)[C@H]23)cc1
3,3,CCOS(=O)(=O)/C=C/c1ccc(OCC2=CC[C@@H]3C(C(=O)Nc4ccc(Oc5ccc(-c6ccccc6)cc5)cc4)=CO[C@@H](OC)[C@H]23)cc1
9,4,O=C(O)C1=CO[C@@H](O[C@@H]2O[C@H](COCc3ccccc3)[C@@H](OCc3ccccc3)[C@H](OCc3ccccc3)[C@H]2OCc2ccccc2)[C@@H]2C(COCc3ccccc3)=CC[C@H]12
